Earlier results, collected in patent publication US20260166031A1, “Methods of Treating Lipedema and Lymphatic Disease of the Subcutaneous Tissue” (Celltaxis, LLC, priority 2023, published 2026).

System: other metalloenzymes
Details: Bhatt et al. (2017); cited from earlier work

O=C(O)c1ccc(CN2C[C@@H]3C[C@H]2CN3Cc2ccc(Oc3ccc(-c4ncco4)cc3)cc2)cc1 [acebilustat, 4-{[(1S,4S)-5-({4-[4-oxazol-2-yl-phenoxy]phenyl}methyl)-2,5-diazabicyclo[2.2.1]heptan-2-yl]methyl}benzoic acid]
selectivity for LTA4H versus other metalloenzymes: highly selective
